Earlier results as cited in patent publication US8512747B2.
Only a part of the results on these compounds is given; other tests are left out.

Details: transbucchal lozenge

CCC(=O)N(c1ccccc1)C1CCN(CCc2ccccc2)CC1
time of peak plasma concentrations: around 20 minutes
